Measured values as given in ChEMBL document CHEMBL4145597, “BMS-986163, a Negative Allosteric Modulator of GluN2B with Potential Utility in Major Depressive Disorder” (ACS Med Chem Lett, 2018).

The chains behind the UniProt entries cited, without tags or fusion partners.
UniProt Q00960, whole entry: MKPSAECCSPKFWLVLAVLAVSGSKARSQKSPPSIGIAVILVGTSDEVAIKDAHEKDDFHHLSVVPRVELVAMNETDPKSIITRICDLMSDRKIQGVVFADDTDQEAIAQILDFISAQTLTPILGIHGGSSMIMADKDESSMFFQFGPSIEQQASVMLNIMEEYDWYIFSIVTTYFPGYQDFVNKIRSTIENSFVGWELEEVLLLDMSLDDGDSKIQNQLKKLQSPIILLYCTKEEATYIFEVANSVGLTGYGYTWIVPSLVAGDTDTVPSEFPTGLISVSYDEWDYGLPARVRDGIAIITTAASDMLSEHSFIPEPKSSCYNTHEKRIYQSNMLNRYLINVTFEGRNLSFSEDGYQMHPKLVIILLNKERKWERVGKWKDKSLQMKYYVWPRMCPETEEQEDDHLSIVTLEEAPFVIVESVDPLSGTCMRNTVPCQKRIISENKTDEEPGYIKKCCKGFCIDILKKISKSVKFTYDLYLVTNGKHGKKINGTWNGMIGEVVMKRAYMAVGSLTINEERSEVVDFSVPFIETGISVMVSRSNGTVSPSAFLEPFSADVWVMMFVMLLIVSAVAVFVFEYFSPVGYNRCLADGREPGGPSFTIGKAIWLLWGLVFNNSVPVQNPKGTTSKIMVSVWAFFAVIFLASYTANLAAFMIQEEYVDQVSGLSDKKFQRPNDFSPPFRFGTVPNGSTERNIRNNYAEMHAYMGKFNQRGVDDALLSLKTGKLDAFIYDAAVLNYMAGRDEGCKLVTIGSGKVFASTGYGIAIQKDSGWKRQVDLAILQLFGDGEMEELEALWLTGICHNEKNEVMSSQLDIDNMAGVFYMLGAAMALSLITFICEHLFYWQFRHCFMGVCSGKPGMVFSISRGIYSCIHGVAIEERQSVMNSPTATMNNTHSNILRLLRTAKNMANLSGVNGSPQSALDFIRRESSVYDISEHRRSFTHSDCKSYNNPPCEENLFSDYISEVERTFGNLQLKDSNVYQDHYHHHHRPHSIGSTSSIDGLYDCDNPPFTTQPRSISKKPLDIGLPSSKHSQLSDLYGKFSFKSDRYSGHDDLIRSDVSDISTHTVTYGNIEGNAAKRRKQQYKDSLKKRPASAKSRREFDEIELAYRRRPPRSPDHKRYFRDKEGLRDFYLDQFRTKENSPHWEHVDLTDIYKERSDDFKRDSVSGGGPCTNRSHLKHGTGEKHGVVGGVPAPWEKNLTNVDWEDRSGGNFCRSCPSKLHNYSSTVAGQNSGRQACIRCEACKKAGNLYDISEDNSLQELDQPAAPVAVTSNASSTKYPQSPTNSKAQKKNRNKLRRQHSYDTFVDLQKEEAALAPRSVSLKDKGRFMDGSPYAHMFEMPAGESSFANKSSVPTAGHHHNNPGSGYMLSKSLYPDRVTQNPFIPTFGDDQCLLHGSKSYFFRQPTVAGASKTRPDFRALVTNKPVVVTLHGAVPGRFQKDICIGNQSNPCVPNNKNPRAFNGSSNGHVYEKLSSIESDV

Target: Glutamate receptor ionotropic, NMDA 2B (Rattus norvegicus, UniProt Q00960)
Test: Displacement of [3H]Ro 25-6981 from GluN2B receptor in Sprague-Dawley rat forebrain membranes incubated for 1 hr by topcount micro scintillation counting method
Set-up: species or system Membrane

Row | pKi | Structure (SMILES)
1 | 8.37 | Cc1ccc(CN2CC[C@@H](N3CC[C@H](c4ccc(O)cc4)[C@@H](F)C3)C2=O)cc1
2 | 8.11 | Cc1ccc(CN2CC[C@@H](N3CCC(c4ccc(O)cc4)C(F)(F)C3)C2=O)cc1 (some centres not stated)

pKi: −log10 of the molar value.
